## Antibody variant affinities, Ab-95 light chain, assay 2

Values reported by Engelhart et al. 2022, doi:10.1038/s41597-022-01779-4 (FLAb copy).

Binding partner: SARS-CoV-2 spike HR2 peptide, sequence PDVDLGDISGINAS.

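The parent was found by panning a naive human phage display library on the peptide. Library AAYL52 holds single substitutions and randomly drawn double and triple substitutions in the CDRs. The assay is AlphaSeq: two haploid yeast populations carry antibody and antigen on their surface. The frequency of each diploid, read from paired DNA barcodes, reflects how well the two displayed proteins bind. Each replicate has its own calibration line, from reference interactions of the BCL2 family. There are three technical replicates.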

Parent: Ab-95, a human scFv built as VH, a 15-residue (Gly4Ser)3 linker, VL. Only the CDRs of the light chain vary.
VH: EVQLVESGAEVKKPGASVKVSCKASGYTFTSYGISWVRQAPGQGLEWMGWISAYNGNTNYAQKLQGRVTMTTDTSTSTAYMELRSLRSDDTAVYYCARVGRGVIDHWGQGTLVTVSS
VL: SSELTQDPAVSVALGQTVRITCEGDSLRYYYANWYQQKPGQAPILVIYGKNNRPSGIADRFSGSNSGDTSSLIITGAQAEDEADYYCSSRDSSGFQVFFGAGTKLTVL

The whole VL of each variant is written out. Scale: log10 of Kd in nM, estimated from mating counts; low values are strong binders. Where no diploid with the target was found in that replicate, the entry reads "nd": below detection, most likely a poor binder, though not proof of it. Background: pairings of library AAYL52 with three empty control strains gave a value in 28% of cases (median 3.91, 5th percentile 2.90). Values in that range, when seen in few replicates, are hard to tell from nonspecific mating. The control count says in how many pairings with the empty strains this scFv gave a signal, with their mean in brackets. For reference, the parent read 2.31 as the reference entry and 2.25 as a member of this library.

VL,"log10 Kd, replicates",signal with controls
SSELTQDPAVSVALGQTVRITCEGDSLRYYYANWYQQKPGQAPILVIYGKNNRPSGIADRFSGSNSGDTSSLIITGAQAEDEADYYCSSRDSSGFYVFFGAGTKLTVL,2.16 2.67 3.11,3 of 9 (4.32)
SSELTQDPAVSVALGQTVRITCEGDSLRYYYACWYQQKPGQAPILVIYGMNNRTSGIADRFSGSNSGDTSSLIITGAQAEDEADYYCSSRDSSGFQVFFGAGTKLTVL,nd 3.76 nd,3 of 9 (3.78)
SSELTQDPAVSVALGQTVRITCEGFSLRYYYANWYQQKPGQAPILVIYGKNNRPSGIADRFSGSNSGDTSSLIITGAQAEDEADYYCSSRDSSGFQVFFGAGTKLTVL,2.94 3.40 2.32,5 of 9 (4.12)
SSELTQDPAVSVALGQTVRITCEGDSLRYYYANWYQQKPGQAPILVIYGKNNRPDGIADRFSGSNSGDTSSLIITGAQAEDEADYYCSSRDLSGFWVFFGAGTKLTVL,nd nd nd,0 of 9
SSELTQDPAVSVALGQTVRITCEGDSLRYYYANWYQQKPGQAPILVIYTKNNRPSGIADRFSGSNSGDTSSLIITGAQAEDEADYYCSSRDSSGNQVSFGAGTKLTVL,nd 4.79 nd,1 of 9 (2.91)
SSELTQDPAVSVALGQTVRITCWGDSLAYYYANWYQQKPGQAPILVIYGKNNRPSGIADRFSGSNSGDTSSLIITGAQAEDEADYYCSSRDSGGFQVFFGAGTKLTVL,4.83 2.66 3.55,2 of 9 (4.15)
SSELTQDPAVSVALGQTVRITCEGDSCRYYYENWYQQKPGQAPILVIYGKNNRPSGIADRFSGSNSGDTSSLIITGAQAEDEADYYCSSRDSSGQQVFFGAGTKLTVL,4.10 5.68 nd,2 of 9 (4.16)
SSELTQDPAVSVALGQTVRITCEGDSLWYYYANWYQQKPGQAPILVIYGRNNRPSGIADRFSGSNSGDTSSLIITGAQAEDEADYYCSSRDSMGFQVFFGAGTKLTVL,3.59 3.61 3.61,7 of 9 (3.72)
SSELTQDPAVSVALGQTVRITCEGESLRYYYANWYQQKPGQAPILVIYGKNNRPSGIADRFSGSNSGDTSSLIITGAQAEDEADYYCSSNDSSRFQVFFGAGTKLTVL,3.14 2.69 4.33,3 of 9 (4.71)
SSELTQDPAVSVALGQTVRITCEGDSLRYQYANWYQQKPGQAPILVIYGKQNRPSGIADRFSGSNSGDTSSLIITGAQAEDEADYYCSKRDSSGFQVFFGAGTKLTVL,1.65 1.47 1.38,3 of 9 (3.82)
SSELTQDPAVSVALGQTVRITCDGDSLRYYYANWYQQKPGQAPILVIYGKNNRPSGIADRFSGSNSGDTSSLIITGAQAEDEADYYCSSQDSSGFQVFFGAGTKLTVL,3.98 4.71 nd,1 of 9 (4.02)
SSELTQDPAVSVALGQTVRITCEGDSLRYYYANWYQQKPGQAPILVIYYKNNRPSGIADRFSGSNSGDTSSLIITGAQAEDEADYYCSVRDGSGFQVFFGAGTKLTVL,nd nd nd,2 of 9 (4.47)
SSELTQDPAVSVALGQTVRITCEGDSLSYTYANWYQQKPGQAPILVIYAKNNRPSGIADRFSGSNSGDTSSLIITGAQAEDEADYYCSSRDSSGFQVFFGAGTKLTVL,2.63 2.92 2.44,5 of 9 (3.78)
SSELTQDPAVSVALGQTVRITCEGDSLRYCYANWYQQKPGQAPILVIYGKNNRPSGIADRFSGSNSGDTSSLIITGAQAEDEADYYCSSRDKDGFQVFFGAGTKLTVL,2.71 2.37 2.29,2 of 9 (4.23)
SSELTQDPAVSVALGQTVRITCEGDSLRIQYANWYQQKPGQAPILVIYGKNNRFSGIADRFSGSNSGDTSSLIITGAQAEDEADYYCSSRDSSGFQVFFGAGTKLTVL,2.65 2.72 2.29,5 of 9 (4.05)

From the list, the first 2 with no signal in any replicate:

VL	log10 Kd, replicates	signal with controls
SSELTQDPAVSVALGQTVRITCEGDSLRYYYANWYQQKPGQAPILVIYGKNNRPDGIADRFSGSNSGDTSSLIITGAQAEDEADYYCSSRDLSGFWVFFGAGTKLTVL	nd nd nd	0 of 9
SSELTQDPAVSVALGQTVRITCEGDSLRYYYANWYQQKPGQAPILVIYYKNNRPSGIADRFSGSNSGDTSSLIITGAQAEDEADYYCSVRDGSGFQVFFGAGTKLTVL	nd nd nd	2 of 9 (4.47)